## Yeast mating assay 2: variants of the scFv Ab-91

Target: peptide PDVDLGDISGINAS, taken from heptad repeat 2 (HR2) of SARS-CoV-2 spike.

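The parent was found by panning a naive human phage display library on the peptide. AAYL51 was designed without a model: most single CDR substitutions and a random sample of double and triple ones. AlphaSeq pools MATa yeast showing the antibodies with MATalpha yeast showing the peptide. After mating in shaken culture at 30 °C for 16 h, diploids were selected and their barcode pairs sequenced. The ratio of observed to expected reads was calibrated, replicate by replicate, on BCL2-family standards whose Kd was known from biolayer interferometry. There are three technical replicates.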

Parent scFv Ab-91: VL joined to VH by the linker GGGGSGGGGSGGGGS. Changes lie in the heavy chain CDRs alone.
VL: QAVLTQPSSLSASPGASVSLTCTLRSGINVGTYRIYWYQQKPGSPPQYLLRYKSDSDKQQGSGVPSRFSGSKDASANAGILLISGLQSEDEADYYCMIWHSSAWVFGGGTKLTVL
VH: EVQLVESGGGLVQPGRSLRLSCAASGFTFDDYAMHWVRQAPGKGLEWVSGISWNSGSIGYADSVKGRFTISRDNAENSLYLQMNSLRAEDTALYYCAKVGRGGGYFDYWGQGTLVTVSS

Substitutions are numbered in sequence along the VH above, starting at 1 (not Kabat).
This list gathers variants with a substitution at N54 (VH, numbered from residue 1).
Numbers give log10(Kd / nM), so 0 is 1 nM and 3 is 1 µM. Smaller is tighter.
An entry "ND" has no value in the source: the pair was not observed among the diploids in that replicate. This suggests poor binding but is not conclusive.
For reference, the parent read 1.86 as the reference entry and 0.88 as a member of this library.
Empty control strains, which show no peptide, gave a signal in 21% of pairings with library AAYL51; the median was 4.54 and 95% of these signals were weaker than 3.26. No background was subtracted.

Variant F29D/N54C/V99A showed 4.35, ND, ND. Variant D30A/N54L/K65T gave 4.13, 4.04, 3.71. Variant N54F/F106P showed ND, ND, ND. For F27C/N54S/S57K, the assay gave ND, ND, 5.06. For N54P/K65Y/Y105E, the assay gave ND, ND, ND. Variant G26N/N54M/G100Y gave 4.18, ND, ND.

For F29A/N54D/S55R, the assay gave 1.63, 1.75, 1.34. For N54H/S55T/S57E, the assay gave 4.58, ND, ND. Variant I51L/N54T/K65C gave ND, ND, ND. Variant T28Q/D30V/N54M showed ND, ND, 3.13. Variant N54R/D62L/K65Y gave 4.21, ND, ND. With Y32N/N54K/R101Q the result was ND, ND, ND.

Variant M34A/S52W/N54D gave 4.26, 6.28, 4.00. For G50H/N54W, the assay gave ND, ND, ND. For F29G/N54H/I58H, the assay gave 4.15, 5.12, ND. With N54P/A61E/G104Y the result was 4.68, ND, 4.92. For F27P/A33P/N54H, the assay gave ND, ND, ND. With H35Y/I51L/N54R the result was ND, ND, 1.81.

For N54W/S63M/G100R, the assay gave ND, ND, ND. For H35V/N54L/S63K, the assay gave ND, 6.21, ND. For I51D/N54H/S57K, the assay gave ND, 6.09, 3.87. With N54T/S57L/Y105K the result was ND, ND, ND. Variant F29E/N54A showed ND, ND, ND. With N54K/I58W/K65D the result was 4.42, 4.11, ND.

Variant F29N/N54K/V99H showed 3.99, ND, 3.79. Variant D31W/N54W/D107P showed 5.07, 3.79, ND. For A33P/H35S/N54F, the assay gave ND, ND, ND. For D31N/N54W, the assay gave 3.82, 2.75, 2.88. With T28V/N54H/I58S the result was 2.90, 2.73, 2.05. Variant F29W/N54I/D107P showed 4.82, 5.06, ND.

Variant D31K/N54G/S55T gave 2.50, 2.35, 2.28. With N54W/G59H/Y105E the result was 4.50, 6.10, ND. For H35P/N54P, the assay gave ND, ND, ND. With A33Q/N54R/S57Q the result was ND, ND, 5.03. Variant G26P/N54R/R101W gave ND, ND, ND. For N54A/G103V/G104K, the assay gave 3.20, 4.28, 4.07.

With T28V/M34W/N54F the result was 3.25, ND, ND. With N54S/I58H/G102H the result was ND, ND, ND. For N54Y/I58W/K65Y, the assay gave ND, ND, ND. Variant G26K/N54I gave 5.46, ND, ND. Variant F27I/N54V/S63F showed 4.16, ND, ND. With D31E/Y32M/N54L the result was 4.06, ND, ND.

For F29L/N54A/Y108F, the assay gave ND, ND, ND. With F29Y/M34T/N54P the result was 3.83, ND, ND. For D30R/H35R/N54P, the assay gave 4.34, 4.34, ND.

The first 3 entries again:

| changes | replicates, log10 nM |
|---|---|
| F29D/N54C/V99A | 4.35, ND, ND |
| D30A/N54L/K65T | 4.13, 4.04, 3.71 |
| N54F/F106P | ND, ND, ND |

The measurements come from Engelhart et al. 2022 (doi:10.1038/s41597-022-01779-4) through the FLAb antibody collection.